These results are taken from patent US9700633B2, “Conjugates of water soluble polymer-amino acid oligopeptide-drug, preparation method and use thereof” (JENKEM TECHNOLOGY CO. LTD., TIANJIN BRANCH, priority 2013, dated 2017).

The test system of data set [1] is human lung cancer A549. The experiment in a line: Xenografted tumor of human lung cancer A549 in nude mice. The note with it: 45 mg/kg, qw × 3w, iv. A general note: A xenograft is tissue or cells of one species grown in another, often human tumour cells in immunodeficient mice.
The test system of data set [2] is human ovarian cancer SKOV-3. The experiment in a line: Xenografted tumor of human ovarian cancer SKOV-3 in nude mice. The note with it: 45 mg/kg, qw × 3w, iv.
In data set [3] the test system is human colon cancer HCT-116. As to the kind of experiment: Xenografted tumor of human colon cancer HCT-116 in nude mice. As to conditions: iv.

Counter-ions that a name gives are not always drawn.

As for `CCc1c2c(nc3ccc(OC(=O)N4CCC(N5CCCCC5)CC4)cc13)-c1cc3c(c(=O)n1C2)COC(=O)[C@]3(O)CC` [CPT-11, irinotecan hydrochloride], the “Body weight, Beginning” value in data set [1] stood at 18.4 g; in data set [3] (15 mg/kg, q3w × 3w), 19.1 g; in data set [3] (45 mg/kg, qw × 3w), 19.2 g. Moreover, the “Body weight, End” value in data set [2] is reported as 18.4 g.
